Measured values as given in paper PMC5161541 (Nuclear medicine and biology, 2016).

The chains behind the UniProt entries cited, without tags or fusion partners.
UniProt O55242, whole entry: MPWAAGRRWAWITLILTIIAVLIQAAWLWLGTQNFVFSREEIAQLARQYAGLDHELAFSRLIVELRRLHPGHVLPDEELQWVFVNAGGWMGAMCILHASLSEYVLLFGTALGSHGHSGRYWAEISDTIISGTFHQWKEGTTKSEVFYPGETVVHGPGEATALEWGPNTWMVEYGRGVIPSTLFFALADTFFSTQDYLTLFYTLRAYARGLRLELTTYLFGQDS

Target: sites labeled by [125I]-E-IA-BF-PIPZE (σ1 receptors) (Mus musculus, UniProt O55242)
Format: binding

Q: How did the IC50 turn out when `CC(C)=CCN1CC[C@]2(C)c3cc(O)ccc3C[C@H]1[C@H]2C` [(+)-Pentazocine, (+)-pentazocine] was run?
A: 0.0137 ± 0.0014 µM

Q: What about the Ki of the same molecule?
A: 0.0081 ± 0.0008 µM
